Source: PubChem BioAssay (NCI)
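1) Cells in 96-well plates. 2) Compound, 48 h, 5 concentrations. 3) Linear interpolation between surrounding doses. 4) Unreached endpoint = highest concentration. The concentration for 50% growth inhibition is given as GI50. TGI: total growth inhibition.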

Assays:
Assay in all cases: NCI tumour cell line growth inhibition, 48 h
786-0 renal = tested on: 786-0 renal
A498 renal = tested on: A498 renal
A549 NSCLC = tested on: A549 NSCLC
ACHN renal = tested on: ACHN renal
BT-549 breast = tested on: BT-549 breast
CAKI-1 renal = tested on: CAKI-1 renal
CCRF-CEM leukemia = tested on: CCRF-CEM leukemia
COLO 205 colon = tested on: COLO 205 colon
DU-145 prostate = tested on: DU-145 prostate
EKVX NSCLC = tested on: EKVX NSCLC
HCC-2998 colon = tested on: HCC-2998 colon
HCT-116 colon = tested on: HCT-116 colon
HCT-15 colon = tested on: HCT-15 colon
HL-60(TB) leukemia = tested on: HL-60(TB) leukemia
HOP-62 NSCLC = tested on: HOP-62 NSCLC
HOP-92 NSCLC = tested on: HOP-92 NSCLC
HS 578T breast = tested on: HS 578T breast
HT29 colon = tested on: HT29 colon
IGROV1 ovarian = tested on: IGROV1 ovarian
K-562 leukemia = tested on: K-562 leukemia
KM12 colon = tested on: KM12 colon
LOX IMVI melanoma = tested on: LOX IMVI melanoma
M14 melanoma = tested on: M14 melanoma
MALME-3M melanoma = tested on: MALME-3M melanoma
MCF7 breast = tested on: MCF7 breast
MDA-MB-231 breast = tested on: MDA-MB-231 breast
MDA-MB-435 = tested on: MDA-MB-435
MDA-N = tested on: MDA-N
MOLT-4 leukemia = tested on: MOLT-4 leukemia
NCI-H226 lung = tested on: NCI-H226 lung
NCI-H23 lung = tested on: NCI-H23 lung
NCI-H322M lung = tested on: NCI-H322M lung
NCI-H460 lung = tested on: NCI-H460 lung
NCI-H522 lung = tested on: NCI-H522 lung
NCI/ADR-RES ovarian = tested on: NCI/ADR-RES ovarian
OVCAR-3 ovarian = tested on: OVCAR-3 ovarian
OVCAR-4 ovarian = tested on: OVCAR-4 ovarian
OVCAR-5 ovarian = tested on: OVCAR-5 ovarian
OVCAR-8 ovarian = tested on: OVCAR-8 ovarian
PC-3 prostate = tested on: PC-3 prostate
RPMI-8226 leukemia = tested on: RPMI-8226 leukemia
RXF 393 renal = tested on: RXF 393 renal
SF-268 CNS = tested on: SF-268 CNS
SF-295 CNS = tested on: SF-295 CNS
SF-539 CNS = tested on: SF-539 CNS
SK-MEL-2 melanoma = tested on: SK-MEL-2 melanoma
SK-MEL-28 melanoma = tested on: SK-MEL-28 melanoma
SK-MEL-5 melanoma = tested on: SK-MEL-5 melanoma
SK-OV-3 ovarian = tested on: SK-OV-3 ovarian
SN12C renal = tested on: SN12C renal
SNB-19 CNS = tested on: SNB-19 CNS
SNB-75 CNS = tested on: SNB-75 CNS
SR leukemia = tested on: SR leukemia
SW-620 colon = tested on: SW-620 colon
T-47D breast = tested on: T-47D breast
TK-10 renal = tested on: TK-10 renal
U251 CNS = tested on: U251 CNS
UACC-257 melanoma = tested on: UACC-257 melanoma
UACC-62 melanoma = tested on: UACC-62 melanoma
UO-31 renal = tested on: UO-31 renal

## Nc1cc([As](=O)(O)O)ccc1O
786-0 renal
  GI50: > 100 µM
  TGI: > 100 µM
A498 renal
  GI50: > 100 µM
  TGI: > 100 µM
A549 NSCLC
  GI50: > 100 µM
  TGI: > 100 µM
ACHN renal
  GI50: > 100 µM
  TGI: > 100 µM
BT-549 breast
  GI50: > 100 µM
  TGI: > 100 µM
CAKI-1 renal
  GI50: > 100 µM
  TGI: > 100 µM
CCRF-CEM leukemia
  GI50: > 100 µM
  TGI: > 100 µM
COLO 205 colon
  GI50: > 100 µM
  TGI: > 100 µM
DU-145 prostate
  GI50: > 100 µM
  TGI: > 100 µM
EKVX NSCLC
  GI50: > 100 µM
  TGI: > 100 µM
HCC-2998 colon
  GI50: > 100 µM
  TGI: > 100 µM
HCT-116 colon
  GI50: > 100 µM
  TGI: > 100 µM
HCT-15 colon
  GI50: > 100 µM
  TGI: > 100 µM
HL-60(TB) leukemia
  GI50: > 100 µM
  TGI: > 100 µM
HOP-62 NSCLC
  GI50: > 100 µM
  TGI: > 100 µM
HOP-92 NSCLC
  GI50: > 100 µM
  TGI: > 100 µM
HS 578T breast
  GI50: > 100 µM
  TGI: > 100 µM
HT29 colon
  GI50: > 100 µM
  TGI: > 100 µM
IGROV1 ovarian
  GI50: > 100 µM
  TGI: > 100 µM
K-562 leukemia
  GI50: > 100 µM
  TGI: > 100 µM
KM12 colon
  GI50: > 100 µM
  TGI: > 100 µM
LOX IMVI melanoma
  GI50: > 100 µM
  TGI: > 100 µM
M14 melanoma
  GI50: > 100 µM
  TGI: > 100 µM
MALME-3M melanoma
  GI50: > 100 µM
  TGI: > 100 µM
MCF7 breast
  GI50: > 100 µM
  TGI: > 100 µM
MDA-MB-231 breast
  GI50: > 100 µM
  TGI: > 100 µM
MDA-MB-435
  GI50: > 100 µM
  TGI: > 100 µM
MDA-N
  GI50: > 100 µM
  TGI: > 100 µM
MOLT-4 leukemia
  GI50: > 100 µM
  TGI: > 100 µM
NCI-H226 lung
  GI50: > 100 µM
  TGI: > 100 µM
NCI-H23 lung
  GI50: > 100 µM
  TGI: > 100 µM
NCI-H322M lung
  GI50: > 100 µM
  TGI: > 100 µM
NCI-H460 lung
  GI50: > 100 µM
  TGI: > 100 µM
NCI-H522 lung
  GI50: > 100 µM
  TGI: > 100 µM
NCI/ADR-RES ovarian
  GI50: > 100 µM
  TGI: > 100 µM
OVCAR-3 ovarian
  GI50: > 100 µM
  TGI: > 100 µM
OVCAR-4 ovarian
  GI50: > 100 µM
  TGI: > 100 µM
OVCAR-5 ovarian
  GI50: > 100 µM
  TGI: > 100 µM
OVCAR-8 ovarian
  GI50: > 100 µM
  TGI: > 100 µM
PC-3 prostate
  GI50: > 100 µM
  TGI: > 100 µM
RPMI-8226 leukemia
  GI50: > 100 µM
  TGI: > 100 µM
RXF 393 renal
  GI50: > 100 µM
  TGI: > 100 µM
SF-268 CNS
  GI50: > 100 µM
  TGI: > 100 µM
SF-295 CNS
  GI50: > 100 µM
  TGI: > 100 µM
SF-539 CNS
  GI50: > 100 µM
  TGI: > 100 µM
SK-MEL-2 melanoma
  GI50: > 100 µM
  TGI: > 100 µM
SK-MEL-28 melanoma
  GI50: > 100 µM
  TGI: > 100 µM
SK-MEL-5 melanoma
  GI50: > 100 µM
  TGI: > 100 µM
SK-OV-3 ovarian
  GI50: > 100 µM
  TGI: > 100 µM
SN12C renal
  GI50: > 100 µM
  TGI: > 100 µM
SNB-19 CNS
  GI50: > 100 µM
  TGI: > 100 µM
SNB-75 CNS
  GI50: > 100 µM
  TGI: > 100 µM
SR leukemia
  GI50: > 100 µM
  TGI: > 100 µM
SW-620 colon
  GI50: > 100 µM
  TGI: > 100 µM
T-47D breast
  GI50: > 100 µM
  TGI: > 100 µM
TK-10 renal
  GI50: > 100 µM
  TGI: > 100 µM
U251 CNS
  GI50: > 100 µM
  TGI: > 100 µM
UACC-257 melanoma
  GI50: > 100 µM
  TGI: > 100 µM
UACC-62 melanoma
  GI50: > 100 µM
  TGI: > 100 µM
UO-31 renal
  GI50: > 100 µM
  TGI: > 100 µM
